# Values quoted from earlier work, collected in patent publication US10323029B2 (priority 2014, dated 2019).
# Conditions: in vivo
compound,measurement,value
"CCCCCCCCc1ccc(CCC(N)(CO)CO)cc1 [FTY720, fingolimod]",cardiac adverse effects,"significant sinus bradycardia, heart block and a prolongation of QTc interval"
